Consider one substance from patent US11576947B2, “Oral composition and method” (Kunming Lanchie Dental Hospital, LTD, priority 2019, dated 2023).

A short description of data set [1]: Stability test in aqueous system (Brilliant Blue color dissipation). In kind it is physicochemical. To be noted: water, 2.76% carbamide peroxide, 0.002% Brilliant Blue; compound amount 0.1%; 60 days, room temperature.
The nature of data set [2]: Stability test in propylene glycol (Brilliant Blue color dissipation). In kind it is physicochemical. To be noted: 2.76% carbamide peroxide, 0.002% Brilliant Blue, compound amount 0.1%, 60 days, room temperature.
Data set [3] can be described thus: System stability evaluation: compatibility of ingredients with peroxide source and the system.

Sodium monofluorophosphate: the “Color (color fading grade)” value in data set [1] and in data set [2] was “+” throughout. Besides, the “Compatibility with the system (cationic biocide and peroxide source)” value in data set [3] is given as “not compatible”. For the same substance, the “Effect on peroxide and system stability” value in data set [3] (summary of testing of Tables 2 and 3) was “activate the peroxide and make the system unstable”.
